From patent US20260001862A1, “QUINOXALINEDIONE AND PYRIDO[2,3-B]PYRAZINE-2,3-DIONE B CELL LYMPHOMA 6 (BCL6) DEGRADERS AND USES THEREOF” (DANA-FARBER CANCER INSTITUTE, INC., priority 2022, published 2026)

Target: Endogenous BCL6 (Homo sapiens, UniProt P41182)
Experiment: HiBiT cellular degradation assay in SU-DHL-4 cells
Details: read-out: HiBiT SU-DHL-4 DC50, 24 hours of compound treatment, concentration to reach 50% degradation
Protocol: DC50 (concentration to reach 50% degradation) values were determined from a cellular degradation assay (HiBiT, Promega™) in Su-DHL-4 cells (Table 1). Endogenous BCL6 was tagged with the 11-amino acid SmBiT through CRISPR/Cas9 gene editing and single cell clone selection. After 24 hours of compound treatment, cells were lysed and incubated with LgBiT protein to reconstitute intact nanoluciferase. Substrate was then added and relative luciferase units were measured. Degradation levels for each treatment were taken as a percentage compared to the control, 100% DMSO (Prism).

Compound: C[C@@H]1C[C@H](C)CN(c2ncc(Cl)c(Nc3ccc4c(c3)n(CC[C@H](C)O)c(=O)c(=O)n4C)n2)C1
- DC50: 41 nM
